Experimental findings from US20220041674A1 (published 2022) are described below.

Protein sequences, listed by entry. Tags and fused reporters are not part of them.
UniProt P61073, whole entry: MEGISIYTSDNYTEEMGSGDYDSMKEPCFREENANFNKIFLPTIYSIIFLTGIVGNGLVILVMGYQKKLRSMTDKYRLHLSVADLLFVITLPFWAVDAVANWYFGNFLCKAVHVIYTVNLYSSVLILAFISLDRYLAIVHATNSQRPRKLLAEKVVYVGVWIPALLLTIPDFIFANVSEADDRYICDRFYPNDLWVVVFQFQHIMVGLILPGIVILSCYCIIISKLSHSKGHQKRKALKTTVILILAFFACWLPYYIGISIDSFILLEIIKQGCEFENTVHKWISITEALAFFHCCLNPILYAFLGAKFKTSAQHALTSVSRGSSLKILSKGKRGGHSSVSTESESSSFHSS
UniProt P70658, whole entry: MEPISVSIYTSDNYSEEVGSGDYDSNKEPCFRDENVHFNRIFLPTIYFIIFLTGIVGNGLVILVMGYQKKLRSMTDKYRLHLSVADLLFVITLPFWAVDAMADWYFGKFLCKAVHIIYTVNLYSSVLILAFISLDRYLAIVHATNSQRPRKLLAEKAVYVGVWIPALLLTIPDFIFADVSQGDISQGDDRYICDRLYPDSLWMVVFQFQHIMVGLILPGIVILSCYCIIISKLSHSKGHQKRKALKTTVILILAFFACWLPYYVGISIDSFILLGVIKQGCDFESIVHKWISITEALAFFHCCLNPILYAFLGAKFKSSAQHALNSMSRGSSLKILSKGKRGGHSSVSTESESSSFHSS

The target of test [1] is human chemokine receptor 4 (CXCR4) (human) (UniProt P61073). In words: competitive radioligand binding on Jurkat cells, [125I]FC131 0.1 nM, 2 h RT.
Test [2] shares this target. In words: competitive radioligand binding on Jurkat cells (400.000 cells/sample), [125I]FC-131.
The target in test [3] is T1, murine chemokine receptor 4 (CXCR4) (murine, UniProt P70658 1-359).
T1 construct: whole, on cells; receptor present on whole cells; also called mCXCR4; mouse CXCR4
In words: competitive radioligand binding on Eµ-Myc1080 mouse B-cell lymphoma cells, [125I]CPCR4.3. How it is done: To be able to assess the effect of structural modifications in the SAR study on CXCR4 binding affinity, data for ^natGa-pentixafor (^natGa-3) and ^natLu-pentixather (^natLu-4) are also included in Table 1a.
Binding assays were performed using Jurkat cells (400,000/well) and ([¹²⁵I]FC131) (c = 0.1 nM) as the radioligand for hCXCR4 and Eμ-Myc1080 mouse B-cell lymphoma cells and [¹²⁵I]CPCR4.3 as radioligand. Cells were incubated in HBSS (1% BSA) at RT for 2 h. Data are expressed as mean ± SD (n = 3). ^{[a]}4-aminobenzoic acid spacer is substituted by 4-aminomethylbenzoic acid (see FIG. 1 (5-16), ^{[b]}(R)-2,3-diaminopropanoic acid.

The target of test [4] is T1, murine chemokine receptor 4 (CXCR4). In words: competitive radioligand binding on Eµ-Myc1080 cells (200.000 cells/sample), [125I]CPCR4.3; metal complex not stated in this table (natLu taken from Table 1a).

With “cyclo[i-yorn′([natGa]DOTA-ra-(4-amino)benzoyl-)RNaIG ([natGa]P5) (peptide)”, the IC50 in test [1] and in test [2] was 2.6 nM throughout.

On to “cyclo[i-yorn′([natBi]DOTA-ra-(4-amino)benzoyl-)RNaIG ([natBi]P5) (peptide)”, for which the half-maximal inhibitory concentration (IC50) in test [2] was 1.8 nM.

For “cyclo[i-yorn′([natLu]DOTA-rG-(4-amino)benzoyl-)RNaIG ([natLu]P4) (peptide)”, the IC50 in test [3] is 37.1 nM; in test [1], 2.1 nM; in test [4], 48.5 nM; in test [2] it was 2.1 nM.

For “cyclo[i-yorn′([natY]DOTA-rG-(4-amino)benzoyl-)RNaIG ([natY]P4) (peptide)”, the half-maximal inhibitory concentration (IC50) in test [2] came to 2.1 nM.

In the case of “cyclo[i-yorn′([natGa]DOTA-rG-(4-amino)benzoyl-)RNaIG ([natGa]P4) (peptide)”, the 50% inhibitory concentration (IC50) in test [1] and in test [2] was 1.4 nM throughout.

Substance “cyclo[i-yorn′(AMBF3(methyl(1H-1,2,3-triazol-4-yl)-rG-4-amino)benzoyl-)RNaIG] (F3) (peptide)” yielded a 50% inhibitory concentration (IC50) in test [2] of 2.9 nM.

In the case of “cyclo[i-yorn′([natLu]DOTA-ra-(4-amino)benzoyl-)RNaIG ([natLu]P5) (peptide)”, the IC50 is 48.5 nM in test [3], 1.7 nM in test [1], 61.4 nM in test [4] and 1.7 nM in test [2].

Regarding “^natLu-pentixather, natLu complex of cyclo(D-3-iodo-Tyr1-D-[NMe]Orn2(AMBS-DOTA)-Arg3-Nal4-Gly5) (peptide)”, the IC50 worked out at 567 nM in test [3] and 14.6 nM in test [1].

In test [2], “cyclo[i-yorn′([natBi]DOTA-rG-(4-amino)benzoyl-)RNaIG ([natBi]P4) (peptide)” registered a 50% inhibitory concentration (IC50) of 2.9 nM.

In test [1], “^natGa-pentixather, natGa complex of cyclo(D-3-iodo-Tyr1-D-[NMe]Orn2(AMBS-DOTA)-Arg3-Nal4-Gly5) (peptide)” yielded an IC50 of 6.1 nM.

Consider “cyclo[i-yorn′([natLu]DOTA-dapG-(4-amino)benzoyl-)RNaIG ([natLu]P2) (peptide)”, for which the IC50 in test [1] and in test [2] was 3.5 nM throughout.

As for “cyclo[i-yorn′([natBi]DOTA-dapG-(4-amino)benzoyl-)RNaIG ([natBi]P2) (peptide)”, the IC50 in test [2] is 3.5 nM.

Turning to “cyclo[i-yorn′([natLu]DOTA-kG-(4-amino)benzoyl-)RNaIG ([natLu]P3) (peptide)”, the IC50 turned out to be 61.4 nM in test [3] and 37.1 nM in test [4].

As for “cyclo[i-yorn′([natY]DOTA-ra-(4-amino)benzoyl-)RNaIG ([natY]P5) (peptide)”, the half-maximal inhibitory concentration (IC50) in test [2] is 1.6 nM.

As to “cyclo[yorn′([natLu]DOTA-ra-(4-amino)benzoyl-)RNaIG ([natLu]P5b) (peptide)”, the IC50 in test [1] and in test [2] was 1.5 nM throughout.
